Laboratory results reported in ChEMBL document CHEMBL1132279, “Axially chiral 1,7-naphthyridine-6-carboxamide derivatives as orally active tachykinin NK(1) receptor antagonists: synthesis, antagonistic activity, and effects on bladder functions” (J Med Chem, 1999).

By UniProt entry, the sequences of proteins in these tests, tags left out.
UniProt P25103, whole entry: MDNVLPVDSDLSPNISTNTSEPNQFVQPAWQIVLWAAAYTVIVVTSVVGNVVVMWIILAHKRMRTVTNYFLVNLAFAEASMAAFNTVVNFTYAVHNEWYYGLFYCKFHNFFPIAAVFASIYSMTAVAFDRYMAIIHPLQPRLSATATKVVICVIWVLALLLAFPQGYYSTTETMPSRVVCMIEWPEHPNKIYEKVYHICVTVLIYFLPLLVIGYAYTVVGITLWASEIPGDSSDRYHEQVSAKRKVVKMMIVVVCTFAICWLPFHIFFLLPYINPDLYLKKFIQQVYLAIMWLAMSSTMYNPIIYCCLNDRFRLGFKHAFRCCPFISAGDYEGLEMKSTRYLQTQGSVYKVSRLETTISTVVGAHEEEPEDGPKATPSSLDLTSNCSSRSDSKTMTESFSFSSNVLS

Molecular target: Substance-P receptor (Homo sapiens, UniProt P25103)
Assay: Tachykinin receptor 1 antagonistic activity as ability to inhibit [125I]BH-SP binding in human IM-9 cells (lymphoblast cells)
Format: cell-based
Outline: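 [125I]Bolton-Hunter-SP binding to human IM-9 lymphoblast cells; IC50 as mean ± SD from at least three independent experiments (n = 3–6) run in duplicate, unless otherwise noted.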

Cc1ccc(-c2c3n(c(=O)c4ncccc24)CC[C@@H](C)CN(Cc2cc(C(F)(F)F)cc(C(F)(F)F)c2)C3=O)cc1 (stereo in doubt; (aR,9R)-8b)
IC50: 0.00045 µM

Cc1ccc(-c2c3n(c(=O)c4ncccc24)CC[C@H](C)CN(Cc2cc(C(F)(F)F)cc(C(F)(F)F)c2)C3=O)cc1 (stereo in doubt; (aR,9S)-8b) [7-(3,5-BIS-TRIFLUOROMETHYL-BENZYL)-9-METHYL-5-P-TOLYL-8,9,10,11-TETRAHYDRO-7H-1,7,11A-TRIAZA-CYCLOOCTA[B]NAPHTHALENE-6,12-DIONE (ATROPISOMERIC MIX)]
IC50: 0.0086 µM

Cc1ccc(-c2c3n(c(=O)c4ncccc24)CC[C@@H](C)CN(Cc2cc(C(F)(F)F)cc(C(F)(F)F)c2)C3=O)cc1 (stereo in doubt; (aS,9R)-8b)
IC50: 0.02 µM

Cc1ccc(-c2c3n(c(=O)c4ncccc24)CC[C@H](C)CN(Cc2cc(C(F)(F)F)cc(C(F)(F)F)c2)C3=O)cc1 (stereo in doubt; (aS,9S)-8b) [7-(3,5-BIS-TRIFLUOROMETHYL-BENZYL)-9-METHYL-5-P-TOLYL-8,9,10,11-TETRAHYDRO-7H-1,7,11A-TRIAZA-CYCLOOCTA[B]NAPHTHALENE-6,12-DIONE (ATROPISOMERIC MIX)]
IC50: 0.34 µM
